Values of other authors as cited in US10568890B2, “Lactate-based fulvestrant or fulvestrant derivative oily preparation and preparation method thereof” (Xi'An Libang Pharmaceutical Co., Ltd, priority 2012, dated 2020).

Chains of the proteins cited; added tags and fusions are not shown.
UniProt P03372, whole entry: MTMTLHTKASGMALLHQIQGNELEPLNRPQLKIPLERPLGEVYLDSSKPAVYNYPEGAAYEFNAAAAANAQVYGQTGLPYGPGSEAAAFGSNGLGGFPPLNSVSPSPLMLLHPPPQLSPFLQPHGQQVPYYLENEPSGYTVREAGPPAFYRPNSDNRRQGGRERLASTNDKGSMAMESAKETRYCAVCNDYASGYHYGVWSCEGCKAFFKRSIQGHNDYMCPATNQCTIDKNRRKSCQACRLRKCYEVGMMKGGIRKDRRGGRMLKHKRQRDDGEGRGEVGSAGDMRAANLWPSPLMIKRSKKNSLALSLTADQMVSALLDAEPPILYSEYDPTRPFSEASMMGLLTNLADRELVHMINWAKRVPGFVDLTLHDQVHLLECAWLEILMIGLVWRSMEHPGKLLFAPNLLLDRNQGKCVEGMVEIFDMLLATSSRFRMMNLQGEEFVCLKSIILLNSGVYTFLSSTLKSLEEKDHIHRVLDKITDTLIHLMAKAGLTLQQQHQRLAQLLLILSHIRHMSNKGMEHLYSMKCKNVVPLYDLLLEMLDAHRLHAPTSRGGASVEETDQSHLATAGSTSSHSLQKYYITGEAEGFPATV

Biological target: receptor (ER) (Homo sapiens, UniProt P03372)
Conditions: relative to tamoxifen (TAM); cited from earlier work

Compound: C[C@]12CC[C@@H]3c4ccc(O)cc4C[C@@H](CCCCCCCCC[S+]([O-])CCCC(F)(F)C(F)(F)F)[C@H]3[C@@H]1CC[C@@H]2O (stereo partly shown) [fulvestrant]
- affinity to a receptor (ER) as compared to TAM: 100 times higher
